From PMC10436262, “Structure-Based Design of Inhibitors of the m^6A-RNA Writer Enzyme METTL3” (ACS Bio & Med Chem Au, 2023) come the findings set out here.

By UniProt entry, the sequences of proteins in these tests, tags left out.
UniProt Q86U44, whole entry: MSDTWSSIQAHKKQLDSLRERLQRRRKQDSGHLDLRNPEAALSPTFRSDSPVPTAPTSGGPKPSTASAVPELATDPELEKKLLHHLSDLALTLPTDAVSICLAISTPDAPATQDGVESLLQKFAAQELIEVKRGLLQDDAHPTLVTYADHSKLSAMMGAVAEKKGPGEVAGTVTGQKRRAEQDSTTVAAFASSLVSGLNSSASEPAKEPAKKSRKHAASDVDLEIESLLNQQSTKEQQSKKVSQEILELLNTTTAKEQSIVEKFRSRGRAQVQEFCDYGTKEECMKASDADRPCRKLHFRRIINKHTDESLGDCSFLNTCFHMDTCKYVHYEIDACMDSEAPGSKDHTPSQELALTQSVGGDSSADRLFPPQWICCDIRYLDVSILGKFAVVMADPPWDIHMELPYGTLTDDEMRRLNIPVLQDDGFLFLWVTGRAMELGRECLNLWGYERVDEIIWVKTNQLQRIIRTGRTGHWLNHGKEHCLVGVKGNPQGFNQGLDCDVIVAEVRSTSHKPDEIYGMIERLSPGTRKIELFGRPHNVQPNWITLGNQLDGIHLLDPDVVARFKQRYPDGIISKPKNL
UniProt Q9HCE5, whole entry partner: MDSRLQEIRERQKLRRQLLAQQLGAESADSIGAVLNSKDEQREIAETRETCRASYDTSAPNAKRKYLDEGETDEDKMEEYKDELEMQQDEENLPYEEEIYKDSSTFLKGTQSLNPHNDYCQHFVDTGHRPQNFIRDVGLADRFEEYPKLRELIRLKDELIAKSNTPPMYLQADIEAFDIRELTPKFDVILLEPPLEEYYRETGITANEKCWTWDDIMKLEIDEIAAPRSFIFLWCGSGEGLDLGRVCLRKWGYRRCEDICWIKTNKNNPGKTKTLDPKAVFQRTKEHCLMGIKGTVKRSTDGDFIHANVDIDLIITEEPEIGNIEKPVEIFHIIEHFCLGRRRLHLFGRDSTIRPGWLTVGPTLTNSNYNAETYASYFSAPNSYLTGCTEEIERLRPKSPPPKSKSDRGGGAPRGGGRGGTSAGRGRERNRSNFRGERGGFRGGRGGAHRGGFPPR

The test deals with METTL3/METTL14 (Homo sapiens, UniProt Q86U44). The test can be described thus: METTL3 enzymatic inhibition assay by homogeneous time-resolved fluorescence (HTRF). The note with it: for IC50: HTRF assay; for S/R Ratio: ratio of IC50 of S isomer to R isomer. Type of test: biochemical.
Where [1] appears, read: read-out: IC50 (µM) R, R isomer.
The mark [2] stands for this setting: read-out: IC50 (µM) S, S isomer.

Read-outs that look alike come from different tables or passages of the source.

As to `Cc1cc(N2CCCC(O)(CNC(=O)c3ccc(CN4CCC(C)(C)CC4)cc3O)C2)ncn1` (racemic), the concentration for half-maximal inhibition (IC50) (racemic mixture) is 51 µM.

Consider `CC(C)C1N(Cc2ccc(C(=O)NCC3(O)CCCN(c4cc(NCc5cccc6sccc56)ncn4)C3)c(O)c2)CC12CCC2` (racemic), for which, under “racemic mixture”, the IC50 was 0.18 µM.

Consider `CNc1cc(N2CCCC(O)(CNC(=O)c3ccc(CN4CCC(C)(C)CC4)cc3O)C2)ncn1` (racemic), for which the “S/R Ratio” value turned out to be 3.3. In addition, under “racemic mixture”, the half-maximal inhibitory concentration (IC50) is 2.6 µM. For the same compound, the IC50 under setting [1] came to 2.9 µM. For the same compound, the 50% inhibitory concentration (IC50) under setting [2] came out at 9.7 µM.

`CC1(C)CCN(Cc2ccc(C(=O)NCC3(O)CCCN(c4ncnc5[nH]ccc45)C3)cc2)CC1` (racemic): the “S/R Ratio” value is given as 5.8. In addition, the concentration for half-maximal inhibition (IC50) (racemic mixture) turned out to be 9.8 µM. For the same compound, under setting [1], the IC50 came to 4.5 µM. The IC50 under setting [2] was 26 µM.

As for `O=C(NCC1(O)CCCN(c2ncnc3[nH]ccc23)C1)c1ccc(CN2CC3(CCC3)C2C2CC2)cc1O` (racemic), the concentration for half-maximal inhibition (IC50) (racemic mixture) stood at 0.74 µM.

Consider `CC1(C)CCN(Cc2ccc(C(=O)NCC3(O)CCCN(c4cc(N)ncn4)C3)c(O)c2)CC1` (racemic), for which the IC50 (racemic mixture) was found to be 4.1 µM.

Turning to `CC1(C)CCN(Cc2ccc(C(=O)NCC3(O)CCCN(c4ccncn4)C3)c(O)c2)CC1` (racemic), where the note is “racemic mixture”, the IC50 was 57 µM.

Regarding `CNc1cc(N2CCCC(O)(CNC(=O)c3ccc(CN4CC5(CCC5)C4C4CC4)cc3O)C2)ncn1` (racemic), the half-inhibitory concentration (IC50) (racemic mixture) was determined as 4.9 µM.
